PubChem BioAssay AID567 (The Scripps Research Institute Molecular Screening Center, 2006)
This is a selection; strong and weak results do not stand in their true shares. The source made the active and inactive calls.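 How the source made its calls: active means activation above the screen-wide mean activation plus 3 SD (cut at about 19% in these data); inactive means the rest.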

Chains of the proteins cited; added tags and fusions are not shown.
UniProt P08908, whole entry, looked up: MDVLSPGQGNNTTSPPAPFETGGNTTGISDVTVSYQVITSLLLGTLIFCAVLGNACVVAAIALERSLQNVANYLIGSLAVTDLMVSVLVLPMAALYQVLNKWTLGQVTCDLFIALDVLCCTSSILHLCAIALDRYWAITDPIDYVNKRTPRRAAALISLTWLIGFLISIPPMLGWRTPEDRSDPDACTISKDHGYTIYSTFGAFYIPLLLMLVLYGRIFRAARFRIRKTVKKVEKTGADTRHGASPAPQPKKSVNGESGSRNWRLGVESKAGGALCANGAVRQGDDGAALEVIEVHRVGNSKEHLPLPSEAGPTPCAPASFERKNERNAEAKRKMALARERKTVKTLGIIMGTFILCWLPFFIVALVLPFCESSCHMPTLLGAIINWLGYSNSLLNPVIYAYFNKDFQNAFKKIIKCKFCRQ

molecular target: 5-hydroxytryptamine receptor 1A (Homo sapiens) (UniProt P08908); experiment: human 5-HT1a receptor agonists, primary screen, cell-based, CHO, Ga15 NFAT-bla reporter (AID 567); conditions: CHO 5-HT1a Ga15 NFAT-bla reporter, FRET ratio; at 10 µM; active compounds read high; 0% basal, 100% maximal reference agonist;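 further: 0% = DMSO wells and 100% = 5-CT at EC100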

Structure (SMILES) | activation
O=C(COc1ccccc1)OC1CN2CCC1CC2 (stereo not given) | inactive: -2.87%
COP1(=S)c2c(C)nn(CCC#N)c2N=C(c2ccc(F)cc2)N1C (stereo not given) | inactive: 0.51%
O=C(OC1CN2CCC1CC2)C12CC3CC(CC(C3)C1)C2 (stereo not given) | inactive: 0.99%
CCOP1(=S)c2c(C)nn(CCC#N)c2N=C(c2ccccc2F)N1C (stereo not given) | inactive: -0.69%
O=P(Nc1nccs1)(c1ccccc1)c1nc2ccccc2s1 (stereo not given) | inactive: -6.69%
CCOP1(=S)c2c(C)nn(CCC#N)c2N=C(c2ccc(F)cc2)N1C (stereo not given) | inactive: -2.06%
Cc1cccc(OCC(=O)OC2CN3CCC2CC3)c1 (stereo not given) | inactive: -0.2%
Clc1n[nH]nc1-c1nn[nH][15n]1 | inactive: -0.22%
O=P1(Nc2ccccn2)COc2ccccc2OC1 | inactive: 0.81%
Cc1nn(-c2ccccc2)c2c1P(=O)(N1CCOCC1)N(C)C(c1ccccc1)=N2 (stereo not given) | inactive: -0.42%
O=P1(Nc2ccc(Br)cn2)COc2ccccc2OC1 | inactive: 2.2%
Cc1ccc(OCC(=O)OC2CN3CCC2CC3)cc1 (stereo not given) | inactive: -0.35%
O=P1(Nc2ncccn2)COc2ccccc2OC1 | inactive: 0.37%
O=C(OC1CN2CCC1CC2)c1cccc(Cl)c1 (stereo not given) | inactive: -0.7%
c1nnnn1CCn1cnnn1 | inactive: 0.35%
O=P(Nc1nccs1)(c1ccccc1)c1ccccc1 | inactive: -0.84%
O=P1(Nc2nc3ccc(Cl)cc3s2)COc2ccccc2O1 (stereo not given) | inactive: 0.34%
COC(=O)c1cc2c(s1)N=C(c1ccccc1)N(C)P2(=O)N1CCOCC1 (stereo not given) | inactive: -0.86%
Cc1c2non([O-])c-2c(C)[n+](=O)[n+]1[O-] | inactive: -1.54%
CCc1nc2c(n1)c1c(non1O)c1c2no[n+]1[O-] | inactive: -1.23%
